Data as given in US20100121049A1, “INDENOISOQUINOLINONE ANALOGS AND METHODS OF USE THEREOF” (INOTEK PHARMACEUTICALS CORPORATION, priority 2007, published 2010).

Amino acid sequences for entries named in this document (tags omitted).
UniProt P11103, whole entry: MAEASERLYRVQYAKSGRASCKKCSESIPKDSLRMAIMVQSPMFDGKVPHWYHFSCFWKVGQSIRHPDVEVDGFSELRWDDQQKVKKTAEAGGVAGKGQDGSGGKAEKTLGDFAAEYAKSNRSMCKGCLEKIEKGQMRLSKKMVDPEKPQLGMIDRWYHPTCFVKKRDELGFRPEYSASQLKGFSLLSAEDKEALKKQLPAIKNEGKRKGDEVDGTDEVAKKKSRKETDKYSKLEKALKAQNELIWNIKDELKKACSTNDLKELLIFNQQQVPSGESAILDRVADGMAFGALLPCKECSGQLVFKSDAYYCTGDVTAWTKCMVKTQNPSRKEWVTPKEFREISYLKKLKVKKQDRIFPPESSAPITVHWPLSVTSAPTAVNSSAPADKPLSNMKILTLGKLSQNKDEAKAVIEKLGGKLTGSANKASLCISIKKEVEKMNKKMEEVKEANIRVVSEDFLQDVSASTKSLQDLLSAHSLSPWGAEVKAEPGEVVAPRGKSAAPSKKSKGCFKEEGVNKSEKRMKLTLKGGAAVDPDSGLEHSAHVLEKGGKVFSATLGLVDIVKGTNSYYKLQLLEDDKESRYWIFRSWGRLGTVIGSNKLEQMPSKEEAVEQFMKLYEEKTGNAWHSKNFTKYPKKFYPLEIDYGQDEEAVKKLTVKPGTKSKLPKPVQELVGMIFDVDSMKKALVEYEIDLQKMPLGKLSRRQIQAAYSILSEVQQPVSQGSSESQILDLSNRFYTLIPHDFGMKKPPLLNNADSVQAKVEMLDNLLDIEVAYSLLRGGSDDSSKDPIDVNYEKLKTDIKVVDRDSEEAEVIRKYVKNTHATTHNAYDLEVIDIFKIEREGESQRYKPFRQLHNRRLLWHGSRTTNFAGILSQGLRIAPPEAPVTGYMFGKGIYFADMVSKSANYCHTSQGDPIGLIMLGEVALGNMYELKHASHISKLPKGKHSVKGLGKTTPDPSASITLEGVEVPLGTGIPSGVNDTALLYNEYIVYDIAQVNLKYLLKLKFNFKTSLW

Molecular target: PARP (Mus musculus, UniProt P11103)
Assay: PARP activity in cultured macrophages, whole-cell based assay (3H-NAD+ incorporation after hydrogen peroxide)
Conditions: read-out: EC50 value; murine RAW macrophages; compound 1 hour prior to hydrogen peroxide (0.5 mM) for 25 minutes; PARP activity by 3H-NAD+
Experimental: Effect of Indenoisoquinolinone Analogs on PARP Activity in Cultured Macrophages, Using a Whole-Cell Based Assay
The murine RAW macrophages (ATCC, American Type Culture Collection, Manassas, Va.) were grown in RPMI […] (Invitrogen Life Technologies; Carlsbad, Calif.) medium supplemented with 10% heat-inactivated FBS, 2 mM L-glutamine, and 100 U/ml of penicillin and streptomycin. Cells, between passages 5 and 15, were seeded at a density of 250,000 cells/well in 12 well plates and allowed to grow 48 hours before use. Growth medium was changed on the day of use. Cells were treated with an Indenoisoquinolinone Analog diluted in a growth medium supplemented with 10% fetal bovine serum (FBS) for 1 hour prior to the addition of hydrogen peroxide (0.5 mM) for a further 25 minutes. […] The pellets were then solubilized in 250 μl of NaOH (0.1 M) containing 2% SDS overnight at 37° C. and the PARP activity was then determined by measuring the radioactivity incorporated using a Wallac scintillation counter. The solubilized protein (250 μl) was mixed with 5 ml of scintillation fluid (ScintiSafe Plus, Fisher Scientific) before being counted for 3 minutes. EC50 values were determined from a dose-response curve.

Row | Structure (SMILES) | EC50
1 | CN(Cc1ccc2c(c1)Cc1c-2[nH]c(=O)c2ccccc12)C(=O)CCN1CCOCC1 | > 50 nM
2 | O=c1[nH]c2c(c3ccccc13)Cc1cc(CN3CCN(CC4CCCO4)CC3)ccc1-2 (centres unmarked) | 75 nM
